Earlier results in publication PMC8197769 (Progress in retinal and eye research, 2020).

Test system: patients with paroxysmal nocturnal hemoglobinuria
Details: human, in vivo

**Q.** Which “safety during prolonged and systemic clinical intervention” value does the source give for “eculizumab: monoclonal antibody that binds C5 and blocks its proteolytic activation” here?
**A.** Its value is “acceptable safety profiles”.
